Patent US20240091321A1

Each substance was assayed against CI-MPR receptor (assay: CI-MPR plate binding assay (96-well plates coated with CI-MPR), bound GAA activity).

Row | Substance | EC50 (read off the curve) [nM]
1 | alglucosidase alfa (from UniProt P10253) (enzyme) | 4

What follows are substances tested against CI-MPR receptor (assay: CI-MPR plate binding assay, conditioned media of HEK293T cells, bound GAA activity, fit of the curves of FIG. 44).

Row | Substance | Bmax [nmol/mL/h] | Kd [nM]
2 | vIGF2-31-GAA (enzyme) | 14 | 20
3 | vIGF2-32-GAA (enzyme) | 18 | 15
4 | vIGF2-22-GAA (enzyme) | 35 | 16
5 | vIGF2-33-GAA (enzyme) | 87 | 74
6 | vIGF2-34-GAA (enzyme) | 54 | 51

The substances below were run against CI-MPR receptor (assay: CI-MPR plate binding assay, conditioned media of HEK293T cells, bound GAA activity, fit of the curves of FIG. 40).

Row | Substance | Bmax [nmol/mL/h] | Kd [nM]
7 | vIGF2-10-GAA (enzyme) | 21 | 13
8 | vIGF2-16-GAA (enzyme) | 14 | 45

The next lines start with the values.

Row | Bmax [nmol/mL/h] | Kd [nM] | Substance
9 | 82 | 19 | vIGF2-18-GAA (enzyme)
10 | 16 | 25 | vIGF2-13-GAA (enzyme)

The substances below were run against CI-MPR receptor (assay: CI-MPR plate binding assay, conditioned media of HEK293T cells, bound GAA activity, fit of the curves of FIG. 42).

Row | Substance | Bmax [nmol/mL/h] | Kd [nM]
11 | vIGF2-23-GAA (enzyme) | 20 | 19
12 | vIGF2-27-GAA (enzyme) | 24 | 39
13 | vIGF2-22-GAA (enzyme) | 46 | 8.7
14 | vIGF2-24 (vIGF2 Δ31-38GGGG V43L) vIGF2-GAA construct (from UniProt P10253 61-952) (enzyme) | 50 | 1.8
15 | vIGF2-28-GAA (enzyme) | 66 | 62
16 | vIGF2-21-GAA (enzyme) | 67 | 11
17 | vIGF2-29-GAA (enzyme) | 69 | 70

The substances below were run against CI-MPR receptor (assay: affinity chromatography on immobilized CI-MPR, elution with a gradient of M6P, GAA activity (F460) of the fractions).

Row | Substance | fraction of GAA activity in the flow-through (not bound) [%]
18 | alglucosidase alfa (from UniProt P10253) (enzyme) | 73
